# Source: patent US6316644A, “Pilyethoxylated retinamide derivatives and process for preparing the same” (LG Chemical Ltd., priority 1998, dated 2001)
# Assays:
# [1] = system: skin of 9-weeks aged naked female mouse
# auricular lymph node = details: mouse, in vivo
# Method: Toxicol. 10(3); 173-180]. […] Each of the test sample was applied to both ears of Blab/c mouse in an amount of 50μl for 3 days and then auricular lymph node was isolated from mouse. Lymph node was micronized to monocellular state and then incubated for 24 hours with addition of radioisotope (^3 H-thymidine).
# [2] = pH 7.4
# skin = details: guinea pig, in vivo
# Method: Assoc. Food and Drug Officials, US. Appraisal of the safety of chemicals in Food, Drugs and Cosmetics, pp46-59, Texas State Dept. of Health, Austin, Tex. and 2 Federal Register (1973): Method of testing primary irritant substances 38(187): pp1500-1541]. Six kinds of the test solutions were prepared at the concentration of 0.3% by using o/w formulation or Lexol GT-865 as the carrier vehicle. First, hair was removed from the portion (dorsal skin of mouse) for applying the test solution and then the naked portion was adapted to the environmental circumstance for 24 hours in order to minimize the skin irritability. The test solution and gauze were applied to the established portion (1.5 cm×1.5 cm) for applying the test solution, which was then sealed with the solid thin film and fixed with the elastic bandage for 48 hours in order to inhibit the evaporation and loss of the test sample. After 2 and 24 hours from removal of the closed patch (i. e. 50 and 72 hours after patch application, respectively), the degree of irritation was determined.
substance,measurement,setting,value
"polyethoxylated retinamide of formula (I) (R=methyl, n=9.8)",Degree of irritation,[1],0.27
same,Safety,[1],weak irritation
same,irritation,[1],weak irritation
same,allergy induction in comparison to ethanol,auricular lymph node,three times and below
same,Receptor solution (amount absorbed),[2],62.72 nmol
same,difference between the irritation degrees,skin,no significant difference
